Experimental data taken from ChEMBL document CHEMBL4028884, “Discovery, Development, and Cellular Delivery of Potent and Selective Bicyclic Peptide Inhibitors of Grb7 Cancer Target” (J Med Chem, 2017).
The source made the active and inactive calls.

Chains of the proteins cited; added tags and fusions are not shown.
UniProt Q14451, whole entry: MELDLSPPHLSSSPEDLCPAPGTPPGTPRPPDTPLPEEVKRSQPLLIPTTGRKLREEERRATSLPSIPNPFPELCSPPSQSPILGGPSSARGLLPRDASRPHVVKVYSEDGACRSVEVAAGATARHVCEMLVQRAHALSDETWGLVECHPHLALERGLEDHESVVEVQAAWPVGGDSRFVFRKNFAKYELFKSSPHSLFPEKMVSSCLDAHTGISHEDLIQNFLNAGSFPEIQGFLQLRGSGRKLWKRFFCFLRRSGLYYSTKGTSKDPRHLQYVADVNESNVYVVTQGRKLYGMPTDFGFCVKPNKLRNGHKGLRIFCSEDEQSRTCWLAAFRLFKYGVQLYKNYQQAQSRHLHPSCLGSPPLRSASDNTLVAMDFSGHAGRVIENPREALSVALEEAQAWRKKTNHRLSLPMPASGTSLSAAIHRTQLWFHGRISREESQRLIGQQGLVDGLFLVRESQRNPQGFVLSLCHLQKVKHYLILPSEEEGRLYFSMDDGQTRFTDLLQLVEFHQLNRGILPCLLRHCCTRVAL

Columns and labels:
Type in all cases: cell-based
[1] = biological target: Growth factor receptor-bound protein 7 (Homo sapiens) (UniProt Q14451); test: Inhibition of GRB7-FAK interaction in human SKBR3 cells assessed as FAK detection in cell lysates at 20 uM preincubated for 1 hr followed by fibronectin stimulation measured after 10 mins by Western blot analysis
[2] = biological target: Growth factor receptor-bound protein 7 (Homo sapiens) (UniProt Q14451); test: Inhibition of GRB7-SHC interaction in human SKBR3 whole cells at 20 uM preincubated for 1 hr followed by fibronectin stimulation measured after 10 mins by Western blot analysis
[3] = biological target: Growth factor receptor-bound protein 7 (Homo sapiens) (UniProt Q14451); test: Inhibition of GRB7-HER2 interaction in human SKBR3 cells assessed as HER2 detection in whole cells at 20 uM preincubated for 1 hr followed by fibronectin stimulation measured after 10 mins by Western blot analysis
[4] = biological target: Growth factor receptor-bound protein 7 (Homo sapiens) (UniProt Q14451); test: Inhibition of GRB7-FAK interaction in human SKBR3 cells assessed as FAK detection in whole cells at 20 uM preincubated for 1 hr followed by fibronectin stimulation measured after 10 mins by Western blot analysis
[5] = biological target: Growth factor receptor-bound protein 7 (Homo sapiens) (UniProt Q14451); test: Inhibition of GRB7-HER2 interaction in human SKBR3 cells assessed as HER2 detection in cell lysates at 20 uM preincubated for 1 hr followed by fibronectin stimulation measured after 10 mins by Western blot analysis
[6] = biological target: Growth factor receptor-bound protein 7 (Homo sapiens) (UniProt Q14451); test: Inhibition of GRB7-SHC interaction in human SKBR3 cells assessed as SHC detection in cell lysates at 20 uM preincubated for 1 hr followed by fibronectin stimulation measured after 10 mins by Western blot analysis

Measured: inhibition

CC[C@H](C)[C@H](NC(=O)[C@H](CCCCN)NC(=O)[C@@H](NC(=O)[C@H](CCC(N)=O)NC(=O)[C@H](CCCNC(=N)N)NC(=O)[C@@H]1CSCC(=O)N[C@@H](Cc2c[nH]c3ccccc23)C(=O)N[C@@H](Cc2ccccc2)C(=O)N[C@@H](CCC(=O)O)C(=O)NCC(=O)N[C@@H](Cc2ccc(O)cc2)C(=O)N[C@@H](CC(=O)O)C(=O)N[C@@H](CC(N)=O)C(=O)N[C@@H]([C@@H](C)O)C(=O)N[C@@H](Cc2ccccc2)C(=O)N2CCC[C@H]2C(=O)N1)[C@@H](C)CC)C(=O)N[C@@H](Cc1c[nH]c2ccccc12)C(=O)N[C@@H](Cc1ccccc1)C(=O)N[C@@H](CCC(N)=O)C(=O)N[C@@H](CC(N)=O)C(=O)N[C@@H](CCCNC(=N)N)C(=O)N[C@@H](CCCNC(=N)N)C(=O)N[C@@H](CCSC)C(=O)N[C@@H](CCCCN)C(=O)N[C@@H](Cc1c[nH]c2ccccc12)C(=O)N[C@@H](CCCCN)C(=O)N[C@@H](CCCCN)C(N)=O
active: all assays above
